# Patent US20240360179A1, “STAPLED PEPTIDES AND METHODS THEREOF” (FOG PHARMACEUTICALS, INC., priority 2021, published 2024)
# Chains of the proteins cited; added tags and fusions are not shown.
# UniProt P35222, whole entry: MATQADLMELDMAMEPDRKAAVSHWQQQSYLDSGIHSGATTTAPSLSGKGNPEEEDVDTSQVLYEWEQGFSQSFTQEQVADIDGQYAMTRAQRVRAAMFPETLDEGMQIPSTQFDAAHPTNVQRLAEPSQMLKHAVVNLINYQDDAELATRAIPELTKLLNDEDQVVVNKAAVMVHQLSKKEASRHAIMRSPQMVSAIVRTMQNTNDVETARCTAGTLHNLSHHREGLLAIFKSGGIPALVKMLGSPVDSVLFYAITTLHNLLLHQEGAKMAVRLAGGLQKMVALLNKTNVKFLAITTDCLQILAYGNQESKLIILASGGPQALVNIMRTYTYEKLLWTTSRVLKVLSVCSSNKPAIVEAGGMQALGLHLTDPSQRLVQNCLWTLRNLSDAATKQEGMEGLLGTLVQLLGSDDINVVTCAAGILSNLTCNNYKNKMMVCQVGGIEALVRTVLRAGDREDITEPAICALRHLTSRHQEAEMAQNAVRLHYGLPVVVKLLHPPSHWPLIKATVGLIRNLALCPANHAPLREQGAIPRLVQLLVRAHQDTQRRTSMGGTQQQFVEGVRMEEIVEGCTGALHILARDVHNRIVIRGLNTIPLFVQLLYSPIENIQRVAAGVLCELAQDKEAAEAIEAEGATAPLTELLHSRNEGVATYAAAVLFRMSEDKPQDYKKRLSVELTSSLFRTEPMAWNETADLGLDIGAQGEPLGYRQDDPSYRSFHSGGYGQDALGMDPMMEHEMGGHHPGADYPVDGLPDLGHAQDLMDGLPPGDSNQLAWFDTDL
# Target: T1, full-length B-Catenin (Uniprot ID P35222) (Homo sapiens, UniProt P35222)
# T1 construct: 10 nM full-length B-Catenin (Uniprot ID P35222)
# Assay: biochemical
# Type: binding
# Conditions: beta-Catenin FP IC50 (nM), competition fluorescence polarization
row,Structure (SMILES),IC50 [nM]
1,"CC(=O)N1CCC[C@]12CC=CCCCC1(CCCC=CCCCOC(=O)N3CC[C@@]4(C3)NC(=O)[C@H](CCCCNC(=O)CC[C@@H](C(=O)N[C@@H](C)C(N)=O)NC(=O)[C@H](Cc3csc5ccccc35)NC(=O)[C@H](Cc3ccsc3)NC4=O)NC(=O)[C@H](CCO)NC(=O)[C@H](C)NC(=O)C(C)(C)NC(=O)[C@H](Cc3cccc(C(=O)O)c3)NC(=O)[C@H](CC(=O)O)NC1=O)NC(=O)[C@H](CC(C)(C)C)NC(=O)[C@H](CC(=O)O)NC2=O (relative stereo) [I-367, Ac-PL3-Asp-Npg-B5-Asp-3COOHF-Aib-Ala-Hse-Lys*3-PyrS2-3Thi-BztA-GlnR*3-Ala-NH2]",50 to 200
2,"CC(=O)N1CCC[C@]12CC=CCCCC1(CCCC=CCCCOC(=O)N3CC[C@@]4(C3)NC(=O)[C@H](CCCCNC(=O)CC[C@@H](C(=O)N[C@@H](CC(C)C)C(N)=O)NC(=O)[C@H](Cc3csc5ccccc35)NC(=O)[C@H](Cc3ccccc3C(F)(F)F)NC4=O)NC(=O)[C@H](Cc3ccccc3)NC(=O)[C@H](C)NC(=O)[C@H](CC(C)(C)C)NC(=O)[C@H](Cc3cccc(C(=O)O)c3)NC(=O)[C@H](CC(=O)O)NC1=O)NC(=O)[C@H](CC(C)(C)C)NC(=O)[C@H](CC(=O)O)NC2=O (single isomer, unassigned) [I-109, Ac-PL3-Asp-Npg-B5-Asp-3COOHF-Npg-Ala-Phe-Lys*3-PyrS2-2F3MeF-BztA-GlnR*3-Leu-NH2]",50 to 200
3,"CCCC[C@@H]1NC(=O)[C@]23CCN(C2)C(=O)OCCCC=CCCCC2(CCCC=CC[C@]4(CCCN4C(C)=O)C(=O)N[C@@H](CC(=O)O)C(=O)N[C@@H](CC(C)(C)C)C(=O)N2)C(=O)N[C@@H](CC(=O)O)C(=O)N[C@@H](Cc2cccc(C(=O)O)c2)C(=O)NC(C)(C)C(=O)N[C@@H](C)C(=O)N[C@@H](Cc2ccccc2)C(=O)N[C@@H](CCCCNC(=O)CC[C@@H](C(=O)N[C@@H](C)C(N)=O)NC(=O)[C@H](Cc2ccc4ccccc4c2)NC1=O)C(=O)N3 (single isomer, unassigned) [I-489, Ac-PL3-Asp-Npg-B5-Asp-3COOHF-Aib-Ala-Phe-Lys*3-PyrS2-nLeu-2NapA-GlnR*3-Ala-NH2]",< 50
4,"CC(=O)N1CCC[C@]12CC=CCCCC1(CCCC=CCCCOC(=O)N3CC[C@@]4(C3)NC(=O)[C@H](CCCCNC(=O)CC[C@@H](C(=O)N[C@@H](C)C(N)=O)NC(=O)[C@H](Cc3cccc(Br)c3)NC(=O)[C@H](Cc3ccccc3)NC4=O)NC(=O)[C@H](Cc3ccccc3)NC(=O)[C@H](C)NC(=O)C(C)(C)NC(=O)[C@H](Cc3cccc(C(=O)O)c3)NC(=O)[C@H](CC(=O)O)NC1=O)NC(=O)[C@H](CC(C)(C)C)NC(=O)[C@H](CC(=O)O)NC2=O (relative stereo) [I-333, Ac-PL3-Asp-Npg-B5-Asp-3COOHF-Aib-Ala-Phe-Lys*3-PyrS2-Phe-3BrF-GlnR*3-Ala-NH2]",< 50
5,"CC(=O)N1CCC[C@]12CC=CCCCC1(CCCC=CCCCOC(=O)N3CC[C@@]4(C3)NC(=O)[C@H](CCCCNC(=O)CC[C@@H](C(=O)N[C@@H](C)C(N)=O)NC(=O)[C@H](Cc3csc5ccccc35)NC(=O)[C@H](Cc3ccsc3)NC4=O)NC(=O)[C@H](Cc3c[nH]cn3)NC(=O)[C@H](C)NC(=O)C(C)(C)NC(=O)[C@H](Cc3cccc(C(=O)O)c3)NC(=O)[C@H](CC(=O)O)NC1=O)NC(=O)[C@H](CC(C)(C)C)NC(=O)[C@H](CC(=O)O)NC2=O (relative stereo) [I-371, Ac-PL3-Asp-Npg-B5-Asp-3COOHF-Aib-Ala-His-Lys*3-PyrS2-3Thi-BztA-GlnR*3-Ala-NH2]",200 to 750
6,"CC(=O)N1CCC[C@]12CC=CCCCC1(CCCC=CCCCOC(=O)N3CC[C@@]4(C3)NC(=O)[C@H](CCCCNC(=O)CC[C@@H](C(=O)N[C@@H](C)C(N)=O)NC(=O)[C@H](Cc3csc5ccccc35)NC(=O)[C@H](Cc3ccccc3C(F)(F)F)NC4=O)NC(=O)[C@H](Cc3ccccc3)NC(=O)[C@H](C)NC(=O)[C@H](C)NC(=O)[C@H](CN(CC(=O)O)CC(F)(F)F)NC(=O)[C@H](CC(N)=O)NC1=O)NC(=O)[C@H](CC(C)(C)C)NC(=O)[C@H](CC(=O)O)NC2=O (relative stereo) [I-117, Ac-PL3-Asp-Npg-B5-Asn-TfeGA-Ala-Ala-Phe-Lys*3-PyrS2-2F3MeF-BztA-GlnR*3-Ala-NH2]",200 to 750

# Continued, values first:
row,IC50 [nM],Structure (SMILES)
1,> 1000,"CC(=O)N1CCC[C@]12CC=CCCCC1(CCCC=CCCCOC(=O)N3CC[C@@]4(C3)NC(=O)[C@H](CCCCNC(=O)CC[C@@H](C(=O)N[C@@H](C)C(N)=O)NC(=O)[C@H](Cc3csc5ccccc35)NC(=O)[C@H](Cc3ccsc3)NC4=O)NC(=O)[C@@H]([C@@H](c3ccccc3)C(C)C)NC(=O)[C@H](C)NC(=O)C(C)(C)NC(=O)[C@H](Cc3cccc(C(=O)O)c3)NC(=O)[C@H](CC(=O)O)NC1=O)NC(=O)[C@H](CC(C)(C)C)NC(=O)[C@H](CC(=O)O)NC2=O (single isomer, unassigned) [I-598, Ac-PL3-Asp-Npg-B5-Asp-3COOHF-Aib-Ala-RbiPrDF-Lys*3-PyrS2-3Thi-BztA-GlnR*3-Ala-NH2]"
2,200 to 750,"CC(=O)N1CCC[C@]12CC=CCCCC1(CCCC=CCCCOC(=O)N3CC[C@@]4(C3)NC(=O)[C@H](CCCCNC(=O)CC[C@@H](C(=O)N[C@@H](C)C(N)=O)NC(=O)[C@H](Cc3csc5ccccc35)NC(=O)[C@H](Cc3ccsc3)NC4=O)NC(=O)[C@H](Cc3ccccc3)NC(=O)[C@H](CC(=O)O)NC(=O)C(C)(C)NC(=O)[C@H](Cc3cccc(C(=O)O)c3)NC(=O)[C@H]([C@H](C)O)NC1=O)NC(=O)[C@H](CC(C)(C)C)NC(=O)[C@H](CC(=O)O)NC2=O (relative stereo) [I-522, Ac-PL3-Asp-Npg-B5-aThr-3COOHF-Aib-Asp-Phe-Lys*3-PyrS2-3Thi-BztA-GlnR*3-Ala-NH2]"
3,< 50,"CCC(CC)[C@@H]1NC(=O)[C@]23CCN(C2)C(=O)OCCCC=CCCCC2(CCCC=CC[C@]4(CCCN4C(C)=O)C(=O)N[C@@H](CC(=O)O)C(=O)N[C@@H](CC(C)(C)C)C(=O)N2)C(=O)N[C@@H](CC(=O)O)C(=O)N[C@@H](Cc2cccc(C(=O)O)c2)C(=O)NC(C)(C)C(=O)N[C@@H](C)C(=O)N[C@@H](Cc2ccccc2)C(=O)N[C@@H](CCCCNC(=O)CC[C@@H](C(=O)N[C@@H](C)C(N)=O)NC(=O)[C@H](Cc2csc4ccccc24)NC1=O)C(=O)N3 (relative stereo) [I-538, Ac-PL3-Asp-Npg-B5-Asp-3COOHF-Aib-Ala-Phe-Lys*3-PyrS2-DiethA-BztA-GlnR*3-Ala-NH2]"
4,< 50,"CC(=O)N1CCC[C@]12CC=CCCCC1(CCCC=CCCCOC(=O)N3CC[C@@]4(C3)NC(=O)[C@H](CCCCNC(=O)CC[C@@H](C(=O)N[C@@H](CCCCN=[N+]=[N-])C(N)=O)NC(=O)[C@H](Cc3csc5ccccc35)NC(=O)[C@H](Cc3ccsc3)NC4=O)NC(=O)[C@H](Cc3ccccc3)NC(=O)[C@H](C)NC(=O)C(C)(C)NC(=O)[C@H](Cc3cccc(C(=O)O)c3)NC(=O)[C@H](CC(=O)O)NC1=O)NC(=O)[C@H](CC(C)(C)C)NC(=O)[C@H](CC(=O)O)NC2=O (relative stereo) [I-607, Ac-PL3-Asp-Npg-B5-Asp-3COOHF-Aib-Ala-Phe-Lys*3-PyrS2-3Thi-BztA-GlnR*3-AzLys-NH2]"
5,50 to 200,"CCCC[C@@H]1NC(=O)[C@]23CCN(C2)C(=O)OCCCC=CCCCC2(CCCC=CC[C@]4(CCCN4C(C)=O)C(=O)N[C@@H](CC(=O)O)C(=O)N[C@@H](CC(C)(C)C)C(=O)N2)C(=O)N[C@@H](CC(=O)O)C(=O)N[C@@H](Cc2cccc(C(=O)O)c2)C(=O)NC(C)(C)C(=O)N[C@@H](C)C(=O)N[C@@H](Cc2ccccc2)C(=O)N[C@@H](CCCCNC(=O)CC[C@@H](C(=O)N[C@@H](C)C(N)=O)NC(=O)[C@H](Cc2ccc4ccccc4c2)NC1=O)C(=O)N3 (single isomer, unassigned) [I-490, Ac-PL3-Asp-Npg-B5-Asp-3COOHF-Aib-Ala-Phe-Lys*3-PyrS2-nLeu-2NapA-GlnR*3-Ala-NH2]"
